# Measurements taken from paper PMC11988775, “Glycyl-tRNA Synthetase as a Target for Antiviral Drug Screening Against Influenza Virus” (International Journal of Molecular Sciences, 2025).
# System: influenza viruses (A/PuertoRico/8/34 (H1N1), A/Guangdong-MaonanSWL1536/2019 (H1N1) pdm09, A/Victoria/4897/2022(H1N1), B/Colorado/06/2017(BV))
# Assay type: cell-based, Influenza A and B virus
smiles,measurement,value
O=c1cc(-c2ccc(O)cc2)oc2cc(O)c(O)c(O)c12 [Scutellarein],antiviral Selectivity Index (SI),around 2
